# This is a selection; strong and weak results do not stand in their true shares. Calls of active or inactive are those of the source.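 Rule for the calls: active = inhibition above a set limit, the mean inhibition across all tested compounds plus 3 SD (cut at about 34% in these data); inactive = the rest.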
# Assay: STAT1 signaling inhibitors, primary screen, cell-based, HTS, luciferase reporter (AID 920);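 note: 0% = IFN-gamma with DMSO and 100% = IFN-gamma with 300 µM nifuroxazide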
# Conditions: NIH 3T3 STAT1-luciferase reporter, IFN-gamma, luminescence; at 5.5 µM; active compounds read high
row,Structure (SMILES),inhibition
1,CN1CCC(Nc2cccc(F)c2)CC1,inactive: -4.27%
2,CN(C)c1cccc(C(=O)NCC2(N3CCCCC3)CCCCC2)c1,inactive: -0.92%
3,COc1ccc(CN(CCCl)CCCl)cc1Cl,inactive: 10.4%
4,CC(C)c1ccc(NC2CCN(C(=O)OC(C)(C)C)CC2)cc1,inactive: -22.9%
5,COc1ccc(NC2CCN(C(=O)OC(C)(C)C)CC2)cc1,inactive: -8.77%
6,CN1CCN(CCOC(=O)C(O)(c2ccccc2)c2ccccc2)CC1,inactive: -3.14%
7,O=C(NCC1(N2CCOCC2)CCCCC1)c1cc(=O)[nH]c2ccccc12,inactive: -0.13%
8,O=C(NCC1(N2CCCCC2)CCCCC1)c1cccc([N+](=O)[O-])c1,inactive: -0.09%
9,N#CC1(Nc2ccccc2)CCN(CCc2ccccc2)CC1,inactive: -3.89%
10,COc1ccc(NC2CCN(CCc3ccccc3)CC2)c(OC)c1,inactive: -4.05%
11,O=C(NCC1(N2CCOCC2)CCCCC1)c1cc2ccccc2o1,inactive: 2.59%
12,CCOC(=O)N1CCC(Nc2ccc(OC)cc2)CC1,inactive: 13.7%
13,O=C(OC1CN2CCC1CC2)C1c2ccccc2Oc2ccccc21 (stereo not given),inactive: -13.1%
14,COc1ccc(C(=O)NCC2(N3CCCCC3)CCCCC2)c(OC)c1OC,inactive: 3.28%
15,CCC(CO)(C(=O)OC1CN2CCC1CC2)c1ccccc1 (stereo not given),inactive: -6.79%
16,COc1cc(OC)cc(C(=O)NCC2(N3CCOCC3)CCCCC2)c1,inactive: 1.3%
17,CCOc1ncccc1C(=O)NCC1(N2CCOCC2)CCCCC1,inactive: 3.84%
18,CC(C)(C)OC(=O)N1CCC(Nc2ccccc2)CC1,inactive: 0.36%
19,CCN1CCC(Nc2cccc(F)c2)CC1,inactive: 5.71%
20,CN(C)c1ccc(C(=O)NCC2(N3CCCCC3)CCCCC2)cc1,inactive: -8.17%
21,c1ccc(CN2CCC(Nc3ccccc3)CC2)cc1,inactive: -1.43%
22,N#Cc1ccc(C(=O)NCC2(N3CCCCC3)CCCCC2)cc1,inactive: -6.38%
23,N/C(=N\O)c1c(N)no[n+]1[O-],inactive: -0.63%
24,O=C(OC1CN2CCC1CC2)C1c2ccccc2C=Cc2ccccc21 (stereo not given),inactive: 6.43%
25,COc1ccc(C(=O)NCC2(N3CCOCC3)CCCCC2)cc1OC,inactive: -2.08%

# — PubChem BioAssay AID920 (The Scripps Research Institute Molecular Screening Center, 2007)
